The text below walks through data of ChEMBL document CHEMBL1141206, “Nonsteroidal anti-inflammatory drugs and their analogues as inhibitors of aldo-keto reductase AKR1C3: new lead compounds for the development of anticancer agents” (Bioorg Med Chem Lett, 2005).

The assay concerns the target T1, Aldo-keto reductase family 1 member C3 (Homo sapiens, UniProt P42330).
T1 sequence (P42330 whole entry): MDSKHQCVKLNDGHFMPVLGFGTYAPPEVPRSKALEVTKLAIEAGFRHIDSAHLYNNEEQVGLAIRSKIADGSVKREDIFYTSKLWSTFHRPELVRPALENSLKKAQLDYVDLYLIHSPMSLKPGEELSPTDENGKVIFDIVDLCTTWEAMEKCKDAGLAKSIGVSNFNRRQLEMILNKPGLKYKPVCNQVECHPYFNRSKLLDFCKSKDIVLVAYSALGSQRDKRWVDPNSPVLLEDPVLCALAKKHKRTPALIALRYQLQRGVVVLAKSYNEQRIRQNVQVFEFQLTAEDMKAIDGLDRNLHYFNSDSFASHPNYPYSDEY
As to the kind of experiment: Inhibition of recombinant human AKR1C3.

SMILES strings stand for the structures. pIC50: −log10 of the molar value.

By pIC50 is commonly meant the negative decadic logarithm of the IC50, by convention in mol/L. In the case of `COc1ccc2cc([C@H](C)C(=O)O)ccc2c1` [NAPROXEN], the pIC50 is 6.32.
